Consider 2 compounds from patent US20100159455A1, “RECEPTOR FAMILY PROFILING” (ENSEMBLE DISCOVERY, priority 2006, published 2010).

The target in one assay is EGFR (Homo sapiens, UniProt P00533). To be noted: pre-treatment with the tyrosine kinase inhibitor; Gannett et al. 1997; cited from earlier work.
In assay [1] the target is T1, EGFR-ErbB2 heterodimers (Homo sapiens, UniProt P00533).
T1 construct: A DPC assay was performed on suspensions of A431 cells; endogenous in cells; host or cells: A431
Description: Indolinium condensation DPC assay for EGFR-ErbB2 heterodimers on A431 cells, flow cytometry. The conditions noted are these: pretreated with AG1478 (1 μM, 15 min at 37° C.) prior to EGF treatment, vs untreated cells. The class given is cell-based. On the technique in general: A flow cytometer gives signals particle by particle.

Assay [2] concerns the target T1, EGFR-ErbB2 heterodimers. The conditions noted are these: treatment with AG1478 alone; Arteaga et al. 1997; cited from earlier work.
Assay [3] deals with ErbB2 overexpressing metastatic breast cancer. The conditions noted are these: Vogel et al. 2002; cited from earlier work.

In the case of `COc1cc2ncnc(Nc3cccc(Cl)c3)c2cc1OC` [AG1478], on EGFR, the “autophosphorylation of the cytoplasmic domain of EGFR” value is listed as “prevents the autophosphorylation”. Further, on EGFR-ErbB2 heterodimers [1], the “change in DPC signal for EGFR-ErbB2 heterodimer” value is on record as “approximately three fold”. Further, the “formation of EGFR-ErbB2 heterodimers” value at EGFR-ErbB2 heterodimers [2] is listed as “induce formation of EGFR-ErbB2 heterodimers”.
Take Trastuzamab: anti-ErbB2, Herceptin: the “patients responding effectively to therapy” value in assay [3] is 35%.
